OPERA 2.9 data: boiling point values

The boiling point refers to atmospheric pressure (760 mmHg), by the definition of the set. "via" names the databases from which the curators took the value.

{"smiles": "C=C(C)C(=O)OCC(CCC)CCCCC", "stereo": "stereo unspecified", "bp (°C)": "258.2", "via": "eChemPortal"}
{"smiles": "COc1ccccc1C(=O)O", "bp (°C)": "200.7", "via": "eChemPortal"}
{"smiles": "O=C1CCCCCCCC=CCCCCCCO1", "bp (°C)": "338.2", "via": "eChemPortal"}
{"smiles": "C=CC(=O)OCC1COC(C)(CC)O1", "stereo": "stereo unspecified", "bp (°C)": "188", "via": "eChemPortal"}
{"smiles": "CC=C(Cl)C(=O)O", "bp (°C)": "212", "via": "OCHEM"}
{"smiles": "CCCCOC(=O)CC(CC(=O)OCCCC)(OC(C)=O)C(=O)OCCCC", "bp (°C)": "331", "via": "OFMPub, PubChem, eChemPortal"}
{"smiles": "CCC[C@H]1CC[C@H](C2CCC(CC)CC2)CC1", "stereo": "stereo partly drawn", "bp (°C)": "323.7", "via": "eChemPortal"}
{"smiles": "COCC=O", "bp (°C)": "92", "via": "OCHEM"}
{"smiles": "CC(C)CC(C)c1ccccc1N", "stereo": "stereo unspecified", "bp (°C)": "257", "via": "eChemPortal"}
{"smiles": "CC1(C)[C@H](C(=O)Cl)[C@@H]1/C=C(\\Cl)C(F)(F)F", "stereo": "relative stereo", "bp (°C)": "215.6", "via": "eChemPortal"}
{"smiles": "FC(F)=C(F)OC(F)(F)C(F)(F)C(F)(F)OC(F)(F)F", "bp (°C)": "65.55", "via": "ChemicalBook, eChemPortal"}
{"smiles": "CCCCCCCCCCCCOC(=O)C(CC)CCCC", "stereo": "stereo unspecified", "bp (°C)": "354.6", "via": "eChemPortal"}
{"smiles": "CCC[C@H]1CC[C@H]([C@H]2CO[C@H](c3cc(F)c(C(F)(F)Oc4cc(F)c(F)c(F)c4)c(F)c3)OC2)CC1", "bp (°C)": "366.7", "via": "eChemPortal"}
{"smiles": "CCOC(=O)/C=C/C(C)C", "bp (°C)": "178", "via": "eChemPortal"}
{"smiles": "FC(F)C(F)(Cl)Cl", "bp (°C)": "30.2", "via": "PubChem"}
{"smiles": "CCOC1CC(C)CC(C)(C)C1", "stereo": "stereo unspecified", "bp (°C)": "184", "via": "eChemPortal"}
{"smiles": "CCOc1ccccc1NC(=O)C(=O)Nc1ccc(CCCCCCCCCC(C)C)cc1", "bp (°C)": "365.9", "via": "eChemPortal"}
{"smiles": "CCC[C@H]1CC[C@H](C2CC=C(c3ccc(OCC)c(F)c3F)CC2)CC1", "stereo": "some centres not stated", "bp (°C)": "398", "via": "eChemPortal"}
{"smiles": "Nc1ccccc1O", "bp (°C)": "153", "via": "OCHEM, PubChem"}
{"smiles": "C1=CC=CCCC=C1", "bp (°C)": "146", "via": "OCHEM"}
{"smiles": "CC(C)C(O)c1ccccc1", "stereo": "stereo unspecified", "bp (°C)": "223", "via": "OCHEM"}
{"smiles": "CCCCOc1ccc(-c2ccc(-c3ccc(CC)cc3)c(F)c2)c(F)c1F", "bp (°C)": "413.5", "via": "eChemPortal"}
{"smiles": "O=C(CCCl)OCCCCCl", "bp (°C)": "236.4", "via": "eChemPortal"}
{"smiles": "CC(F)(F)C(F)(F)C(F)(F)F", "bp (°C)": "15.15", "via": "ChemicalBook"}
{"smiles": "Cc1cc(C)c(Cl)c(C)c1Cl", "bp (°C)": "243", "via": "OCHEM"}
{"smiles": "CCCOc1ccc(C2=CCC([C@H]3CC[C@H](CCC)CC3)CC2)c(F)c1F", "stereo": "some centres not stated", "bp (°C)": "404", "via": "eChemPortal"}

Excerpt, the final 4 entries:

{"smiles": "O=C(CCCl)OCCCCCl", "bp (°C)": "236.4", "via": "eChemPortal"}
{"smiles": "CC(F)(F)C(F)(F)C(F)(F)F", "bp (°C)": "15.15", "via": "ChemicalBook"}
{"smiles": "Cc1cc(C)c(Cl)c(C)c1Cl", "bp (°C)": "243", "via": "OCHEM"}
{"smiles": "CCCOc1ccc(C2=CCC([C@H]3CC[C@H](CCC)CC3)CC2)c(F)c1F", "stereo": "some centres not stated", "bp (°C)": "404", "via": "eChemPortal"}

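OPERA's authors assembled the values from existing databases and did not measure them anew. A listed value is a point estimate from one report or more. Conditions of the individual experiments are not part of the data. The measured form (salt, isomer or mixture) is not always the one drawn. Unmarked limits or estimates from the upstream databases cannot be ruled out.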

Values as listed in the OPERA 2.9 repository of K. Mansouri.